Results from ChEMBL document CHEMBL1641579, “Synthesis and biological evaluation of 7-substituted-1-(3-bromophenylamino)isoquinoline-4-carbonitriles as inhibitors of myosin light chain kinase and epidermal growth factor receptor” (Bioorg Med Chem, 2011).
pKi: −log10 of the molar value.

Sequences of proteins named here, by UniProt entry; tags and fusion partners are left off.
UniProt Q15746, whole entry: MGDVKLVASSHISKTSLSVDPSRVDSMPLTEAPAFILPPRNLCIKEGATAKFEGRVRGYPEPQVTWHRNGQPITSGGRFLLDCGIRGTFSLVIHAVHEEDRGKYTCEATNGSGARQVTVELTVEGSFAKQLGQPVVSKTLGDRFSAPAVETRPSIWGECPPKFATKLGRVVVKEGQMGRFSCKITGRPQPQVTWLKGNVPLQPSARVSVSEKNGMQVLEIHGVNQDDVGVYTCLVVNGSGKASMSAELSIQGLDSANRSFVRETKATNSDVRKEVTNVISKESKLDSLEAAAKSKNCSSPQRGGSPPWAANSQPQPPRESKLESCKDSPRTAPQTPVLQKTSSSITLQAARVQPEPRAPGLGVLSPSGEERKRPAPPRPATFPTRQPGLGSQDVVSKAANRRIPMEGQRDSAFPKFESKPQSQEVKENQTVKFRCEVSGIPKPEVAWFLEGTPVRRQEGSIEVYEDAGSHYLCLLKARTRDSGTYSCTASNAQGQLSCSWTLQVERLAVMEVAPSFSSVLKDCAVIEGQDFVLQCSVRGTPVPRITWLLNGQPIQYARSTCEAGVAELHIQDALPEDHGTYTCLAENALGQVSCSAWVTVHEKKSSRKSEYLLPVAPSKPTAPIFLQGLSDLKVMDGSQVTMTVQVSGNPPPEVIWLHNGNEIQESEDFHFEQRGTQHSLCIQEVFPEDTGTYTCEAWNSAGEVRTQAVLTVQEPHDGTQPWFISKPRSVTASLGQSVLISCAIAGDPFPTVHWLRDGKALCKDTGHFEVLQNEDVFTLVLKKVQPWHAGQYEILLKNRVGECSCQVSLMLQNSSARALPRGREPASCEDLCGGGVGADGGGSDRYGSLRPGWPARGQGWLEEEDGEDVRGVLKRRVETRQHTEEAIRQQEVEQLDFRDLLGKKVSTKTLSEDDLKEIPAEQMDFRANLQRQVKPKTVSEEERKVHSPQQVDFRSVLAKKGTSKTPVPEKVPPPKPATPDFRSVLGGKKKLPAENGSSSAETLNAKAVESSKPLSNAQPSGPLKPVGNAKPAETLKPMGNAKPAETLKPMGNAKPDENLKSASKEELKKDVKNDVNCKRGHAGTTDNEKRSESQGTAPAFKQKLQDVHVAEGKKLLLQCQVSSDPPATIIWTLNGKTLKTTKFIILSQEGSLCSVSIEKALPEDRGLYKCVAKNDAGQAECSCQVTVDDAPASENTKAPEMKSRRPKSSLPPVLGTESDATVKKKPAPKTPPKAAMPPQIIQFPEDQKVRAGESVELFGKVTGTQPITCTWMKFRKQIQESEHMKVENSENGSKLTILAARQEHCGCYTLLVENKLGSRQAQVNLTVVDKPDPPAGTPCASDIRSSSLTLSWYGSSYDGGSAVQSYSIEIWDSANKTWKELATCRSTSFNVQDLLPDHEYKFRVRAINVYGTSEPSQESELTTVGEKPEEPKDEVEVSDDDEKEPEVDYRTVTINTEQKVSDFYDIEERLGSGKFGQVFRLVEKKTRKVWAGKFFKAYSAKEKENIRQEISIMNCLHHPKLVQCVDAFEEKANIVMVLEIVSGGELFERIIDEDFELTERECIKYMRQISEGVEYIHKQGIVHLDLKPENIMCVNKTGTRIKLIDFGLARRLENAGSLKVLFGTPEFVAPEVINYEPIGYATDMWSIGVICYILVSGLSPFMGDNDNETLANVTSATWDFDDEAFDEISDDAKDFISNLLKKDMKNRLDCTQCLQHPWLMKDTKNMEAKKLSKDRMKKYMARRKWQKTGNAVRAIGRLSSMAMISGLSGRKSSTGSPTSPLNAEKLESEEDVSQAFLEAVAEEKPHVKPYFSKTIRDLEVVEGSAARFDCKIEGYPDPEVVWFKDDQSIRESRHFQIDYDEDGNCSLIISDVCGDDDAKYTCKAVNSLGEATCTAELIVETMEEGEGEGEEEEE

Target: Myosin light chain kinase, smooth muscle (Homo sapiens, UniProt Q15746)
Assay: Inhibition of MLCK by HTRF assay
Outline: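 HTRF activity assay with peptide substrate STK1 at 375 nM and ATP at its Km (18 µM), in the presence of Ca2+/calmodulin. Kinase and inhibitor preincubated 30 min, then ATP plus substrate added. Detection by Eu-cryptate anti-phospho-STK1 antibody and streptavidin-XL665, with the 665/620 nm FRET ratio read. Eight inhibitor concentrations, Hill 4-parameter fit. At least two independent runs, each in duplicate. NI means no inhibition up to 40 µM.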

Question: With `COC(=O)[C@@]1(O)C[C@H]2O[C@]1(C)n1c3ccccc3c3c4c(c5c6ccccc6n2c5c31)C(=O)NC4` [K-252A] as the compound, how does the pKi read?
Answer: The pKi was 7.70.
